The source of these data is patent US20230002360A1, “Heterocycloalkyl compounds as CCR2 / CCR5 antagonists” (SHENZHEN LINGFANG BIOTECH CO.,LTD, priority 2019, published 2023).

Chains of the proteins cited; added tags and fusions are not shown.
UniProt P41597, whole entry: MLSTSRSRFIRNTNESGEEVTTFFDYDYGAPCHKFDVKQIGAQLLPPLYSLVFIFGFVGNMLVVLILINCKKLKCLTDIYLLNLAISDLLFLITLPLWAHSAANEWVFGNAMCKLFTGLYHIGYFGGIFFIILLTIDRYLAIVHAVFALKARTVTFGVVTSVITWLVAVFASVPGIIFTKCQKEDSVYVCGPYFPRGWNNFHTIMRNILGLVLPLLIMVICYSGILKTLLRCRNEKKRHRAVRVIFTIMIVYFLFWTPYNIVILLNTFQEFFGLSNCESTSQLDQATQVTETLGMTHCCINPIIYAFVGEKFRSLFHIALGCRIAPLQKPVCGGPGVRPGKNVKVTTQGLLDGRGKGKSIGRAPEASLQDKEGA
UniProt P51681, whole entry: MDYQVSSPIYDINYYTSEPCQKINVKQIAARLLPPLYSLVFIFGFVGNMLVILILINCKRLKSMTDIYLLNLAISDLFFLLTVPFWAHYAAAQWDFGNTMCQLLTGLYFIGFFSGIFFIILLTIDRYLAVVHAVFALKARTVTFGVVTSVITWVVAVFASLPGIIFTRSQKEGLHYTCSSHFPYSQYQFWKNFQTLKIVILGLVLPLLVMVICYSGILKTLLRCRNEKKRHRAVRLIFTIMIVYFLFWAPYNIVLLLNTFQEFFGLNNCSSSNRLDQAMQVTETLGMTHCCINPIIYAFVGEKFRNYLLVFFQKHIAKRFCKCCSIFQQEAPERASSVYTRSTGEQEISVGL
UniProt P10635, whole entry: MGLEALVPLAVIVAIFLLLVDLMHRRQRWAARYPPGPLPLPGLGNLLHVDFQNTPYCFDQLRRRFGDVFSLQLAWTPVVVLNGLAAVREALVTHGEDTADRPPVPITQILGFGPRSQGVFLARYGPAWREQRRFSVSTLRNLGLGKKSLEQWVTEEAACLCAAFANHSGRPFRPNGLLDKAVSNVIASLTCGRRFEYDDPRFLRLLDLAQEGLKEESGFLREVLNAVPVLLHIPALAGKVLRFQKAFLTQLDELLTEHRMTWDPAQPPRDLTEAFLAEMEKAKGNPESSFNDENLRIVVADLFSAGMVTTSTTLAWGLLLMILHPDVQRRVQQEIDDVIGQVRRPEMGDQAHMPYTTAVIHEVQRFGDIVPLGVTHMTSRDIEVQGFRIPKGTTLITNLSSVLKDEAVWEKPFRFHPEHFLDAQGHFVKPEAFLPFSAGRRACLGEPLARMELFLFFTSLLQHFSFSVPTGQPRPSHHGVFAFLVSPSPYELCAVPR
UniProt P05177, whole entry: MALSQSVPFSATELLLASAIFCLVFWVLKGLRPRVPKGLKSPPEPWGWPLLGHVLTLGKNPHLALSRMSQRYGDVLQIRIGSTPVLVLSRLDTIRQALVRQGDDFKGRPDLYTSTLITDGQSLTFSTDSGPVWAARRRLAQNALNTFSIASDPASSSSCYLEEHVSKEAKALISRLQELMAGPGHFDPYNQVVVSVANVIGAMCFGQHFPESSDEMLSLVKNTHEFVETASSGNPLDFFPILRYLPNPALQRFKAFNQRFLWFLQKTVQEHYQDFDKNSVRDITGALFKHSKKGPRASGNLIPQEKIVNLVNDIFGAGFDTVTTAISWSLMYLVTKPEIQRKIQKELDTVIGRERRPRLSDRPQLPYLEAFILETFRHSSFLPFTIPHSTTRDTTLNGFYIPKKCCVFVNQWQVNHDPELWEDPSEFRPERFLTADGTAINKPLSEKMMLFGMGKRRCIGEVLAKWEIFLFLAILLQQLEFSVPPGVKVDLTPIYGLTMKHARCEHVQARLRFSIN
UniProt P08684, whole entry: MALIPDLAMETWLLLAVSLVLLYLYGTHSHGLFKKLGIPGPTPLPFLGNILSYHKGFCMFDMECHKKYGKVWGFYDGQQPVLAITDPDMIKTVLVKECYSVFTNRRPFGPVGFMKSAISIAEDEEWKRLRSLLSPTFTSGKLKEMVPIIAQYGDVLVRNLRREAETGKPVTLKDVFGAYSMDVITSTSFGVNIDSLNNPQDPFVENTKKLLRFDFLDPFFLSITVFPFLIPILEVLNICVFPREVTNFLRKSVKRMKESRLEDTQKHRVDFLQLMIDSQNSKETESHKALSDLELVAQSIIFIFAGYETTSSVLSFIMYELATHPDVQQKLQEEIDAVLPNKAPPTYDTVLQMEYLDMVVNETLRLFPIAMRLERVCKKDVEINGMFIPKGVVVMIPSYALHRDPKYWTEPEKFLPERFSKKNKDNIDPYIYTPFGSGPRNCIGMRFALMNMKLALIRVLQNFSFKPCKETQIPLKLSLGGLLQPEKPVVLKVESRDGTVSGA
UniProt P11712, whole entry: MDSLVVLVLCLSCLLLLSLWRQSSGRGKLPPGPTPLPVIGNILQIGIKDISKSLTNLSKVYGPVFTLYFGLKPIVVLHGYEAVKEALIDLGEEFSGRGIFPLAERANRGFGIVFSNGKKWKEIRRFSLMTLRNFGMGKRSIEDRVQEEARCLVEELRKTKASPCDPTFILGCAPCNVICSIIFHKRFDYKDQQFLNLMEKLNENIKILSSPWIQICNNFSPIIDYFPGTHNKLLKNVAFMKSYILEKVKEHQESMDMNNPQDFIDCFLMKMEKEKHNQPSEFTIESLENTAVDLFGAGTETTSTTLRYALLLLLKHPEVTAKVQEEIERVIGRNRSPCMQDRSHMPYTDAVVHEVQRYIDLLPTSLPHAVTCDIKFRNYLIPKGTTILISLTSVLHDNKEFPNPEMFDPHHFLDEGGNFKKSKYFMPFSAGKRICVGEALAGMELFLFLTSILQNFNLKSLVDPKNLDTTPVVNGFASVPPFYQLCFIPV
UniProt P33261, whole entry: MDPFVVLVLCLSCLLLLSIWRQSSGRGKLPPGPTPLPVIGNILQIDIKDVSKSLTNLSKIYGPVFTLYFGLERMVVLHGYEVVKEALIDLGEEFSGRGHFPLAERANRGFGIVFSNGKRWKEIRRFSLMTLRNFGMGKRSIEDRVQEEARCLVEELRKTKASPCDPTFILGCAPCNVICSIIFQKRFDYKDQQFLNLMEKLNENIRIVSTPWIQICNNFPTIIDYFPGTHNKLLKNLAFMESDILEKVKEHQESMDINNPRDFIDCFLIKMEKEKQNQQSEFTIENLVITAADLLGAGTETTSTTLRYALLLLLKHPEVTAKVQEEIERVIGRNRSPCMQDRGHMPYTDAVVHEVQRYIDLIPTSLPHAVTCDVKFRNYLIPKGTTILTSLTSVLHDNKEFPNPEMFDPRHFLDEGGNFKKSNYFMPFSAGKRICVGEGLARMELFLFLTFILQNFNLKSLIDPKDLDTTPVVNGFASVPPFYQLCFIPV

Data set [1] has as its target CCR2 (Homo sapiens, UniProt P41597). Kind of data set: FLIPR calcium assay, CCR2 cell line. The following applies: read-out: IC50 (nM) test results for FLIPR detection, CCR2; HEK293 host cell, MCP-1 agonist, intracellular calcium signal. In general terms: A change in cytosolic calcium serves as a functional read-out for many receptors and channels.
For data set [2], the target named is CCR5 (Homo sapiens, UniProt P51681). In words: FLIPR calcium assay, CCR5 cell line. Conditions: read-out: IC50 (nM) test results for FLIPR detection, CCR5; HEK293 host cell, RANTES agonist, intracellular calcium signal.
Data set [3] addresses CYP2D6 (Homo sapiens, UniProt P10635). Kind of data set: Inhibition of human liver microsomal CYP2D6 (dextromethorphan probe). Conditions: read-out: Half inhibitory concentration IC50, CYP2D6, human liver microsomes. The format is in vitro ADME. Here is the method:
(§1) Experimental Example 2. Inhibition of human liver microsomal cytochrome P450 isoenzymes (CYP1A2, CYP2C9, CYP2C19, CYP2D6 and CYP3A4) activity
(§2) A total of 5 specific probe substrates of 5 CYP isozymes, which are phenacetin (PHenacetin, CYP1A2), diclofenac (Diclofenac, CYP2C9), (S)-mephenytoin ((S)-MepHenytoin, CYP2C19), dextromethorpHan (CYP2D6), and midazolam (Midazolam, CYP3A4), were incubated with human liver microsomes respectively. Then, reduced nicotinamide adenine dinucleotide phosphate (NADPH) was added to initiate reaction. After the reaction, the sample is processed and quantitatively detected for the concentrations of the five metabolites produced from the specific substrate, acetaminophen (AcetaminopHen), 4′-hydroxydiclofenac (4′-Hydroxydiclofenac), 4′-Hydroxymephenytoin (4′-HydroxymepHenytoin), Dextrorphan (DextrorpHan), and 1′-Hydroxymidazolam (1′-Hydroxymidazolam) by liquid chromatography-quadrupole mass spectrometry (LC-MS/MS) method to calculate the corresponding half inhibitory concentration (IC50).
(Liver microsomes are vesicles of endoplasmic reticulum, rich in cytochrome P450 enzymes.)

Data set [4] deals with CYP1A2 (Homo sapiens, UniProt P05177). In words: Inhibition of human liver microsomal CYP1A2 (phenacetin probe). The format is in vitro ADME. The following applies: read-out: Half inhibitory concentration IC50, CYP1A2, human liver microsomes. As for the experimental part: as §1, §2
Data set [5] addresses CYP3A4 (Homo sapiens, UniProt P08684). In words: Inhibition of human liver microsomal CYP3A4 (midazolam probe). The format is in vitro ADME. The following applies: read-out: Half inhibitory concentration IC50, CYP3A4-M, human liver microsomes.
The test system of data set [6] is human liver microsomal cytochrome P450 isoenzymes. In words: Inhibition of human liver microsomal cytochrome P450 isoenzymes, overall conclusion. It is filed as in vitro ADME. The following applies: conclusion from Table 2. As for the experimental part:
as §1, §2

The target in data set [7] is CYP2C9 (Homo sapiens, UniProt P11712). In words: Inhibition of human liver microsomal CYP2C9 (diclofenac probe). The format is in vitro ADME. Conditions: read-out: Half inhibitory concentration IC50, CYP2C9, human liver microsomes. As for the experimental part: as §1, §2
Data set [8] has as its target CYP2C19 (Homo sapiens, UniProt P33261). In words: Inhibition of human liver microsomal CYP2C19 ((S)-mephenytoin probe). The format is in vitro ADME. The following applies: read-out: Half inhibitory concentration IC50, CYP2C19, human liver microsomes. As for the experimental part: as §1, §2

As to `CCCCOCCOc1ccc(-c2ccc3c(c2)/C=C(/C(=O)Nc2ccc([S@+]([O-])Cc4c(C)ncn4CC)cc2)CCCN3C[C@@H]2CN(C)CCO2)cc1`, the IC50 in data set [1] turned out to be 2.62 nM; in data set [2], 2.45 nM.
The like results for `CCCCOCCOc1ccc(-c2ccc3c(c2)C=C(C(=O)Nc2ccc([S@+]([O-])Cc4c(C)ncn4CC)cc2)CCN3CC2COC2)cc1` were, in that order, 7.48 nM and 7.33 nM.
For `CCCCOCCOc1ccc(-c2ccc3c(c2)/C=C(/C(=O)Nc2ccc([S@+]([O-])Cc4c(C)ncn4CC)cc2)CCCN3CC2COCCN2C)cc1` (stereo partly shown), in that order: 3.9 nM and 4.12 nM.
Turning to `CCCCOCCOc1ccc(-c2ccc3c(c2)C=C(C(=O)Nc2ccc([S@+]([O-])Cc4c(C)ncn4CC)cc2)CCN3C[C@@H]2COCCN2C)cc1`, the IC50 in data set [1] stood at 4.97 nM; in data set [2], 0.65 nM.
The like results for `CCCCOCCOc1ccc(-c2ccc3c(c2)C=C(C(=O)Nc2ccc([S@+]([O-])Cc4c(C)ncn4CC)cc2)CCN3C[C@H]2CN(C)CCO2)cc1` were, in that order, 21 nM and 10.3 nM.
For `CCCCOCCOc1ccc(-c2ccc3c(c2)C=C(C(=O)Nc2ccc([S@+]([O-])Cc4c(C)ncn4CC)cc2)CCN3CC2CCOCC2)cc1`, in that order: 7.65 nM and 5.62 nM.
The like results for `CCCCOCCOc1ccc(-c2ccc3c(c2)/C=C(/C(=O)Nc2ccc([S@+]([O-])Cc4c(C)ncn4CC)cc2)CCCN3C[C@H]2CN(C)CCO2)cc1` were, in that order, 1.59 nM and 0.76 nM.
`CCCCOCCOc1ccc(-c2ccc3c(c2)C=C(C(=O)Nc2ccc([S@+]([O-])Cc4c(C)ncn4CC)cc2)CCN3C[C@@H]2CN(C)CCO2)cc1`: the results for the IC50 in data set [1] and in data set [2] were 48.9 nM and 15.7 nM, respectively.
For `CCCCOCCOc1ccc(-c2ccc3c(c2)C=C(C(=O)Nc2ccc([S@+]([O-])Cc4c(C)ncn4CC)cc2)CCN3C[C@H]2CCOC2)cc1`, in that order: 6.19 nM and 3.29 nM.
The like results for `CCCCOCCOc1ccc(-c2ccc3c(c2)C=C(C(=O)Nc2ccc([S@+]([O-])Cc4c(C)ncn4CC)cc2)CCN3C[C@H]2COCCN2C)cc1` were, in that order, 18.1 nM and 6.99 nM.
As for `CCCCOCCOc1ccc(-c2ccc3c(c2)C=C(C(=O)Nc2ccc([S@+]([O-])Cc4c(C)ncn4CC)cc2)CCN3C[C@@H]2CCOC2)cc1`, the IC50 in data set [3] is above 50000 nM; in data set [1], 6.82 nM; in data set [2], 4.33 nM; in data set [4] it was above 50000 nM; in data set [5] it was above 50000 nM; in data set [7], 22800 nM. The IC50 in data set [8] was above 50000 nM. Besides, the “risk of inhibiting the activity of human liver microsomal cytochrome P450 isoenzymes (in words)” value in data set [6] was “no risk of inhibiting the activity”.
